# Results from ChEMBL document CHEMBL2218924, “A broad activity screen in support of a chemogenomic map for kinase signalling research and drug discovery” (Biochem J, 2013).
# The chains behind the UniProt entries cited, without tags or fusion partners. Where a name states a change or a piece, a line headed by the entry shows the natural chain unless it says otherwise.
# UniProt P30281: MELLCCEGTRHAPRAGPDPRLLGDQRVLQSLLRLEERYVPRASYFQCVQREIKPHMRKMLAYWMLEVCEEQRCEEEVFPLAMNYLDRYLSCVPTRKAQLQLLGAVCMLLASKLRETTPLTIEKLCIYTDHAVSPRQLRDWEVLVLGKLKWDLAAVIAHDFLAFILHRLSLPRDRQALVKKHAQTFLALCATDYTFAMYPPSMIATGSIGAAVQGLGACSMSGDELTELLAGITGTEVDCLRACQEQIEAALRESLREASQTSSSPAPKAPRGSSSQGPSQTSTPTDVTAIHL
# UniProt Q00534: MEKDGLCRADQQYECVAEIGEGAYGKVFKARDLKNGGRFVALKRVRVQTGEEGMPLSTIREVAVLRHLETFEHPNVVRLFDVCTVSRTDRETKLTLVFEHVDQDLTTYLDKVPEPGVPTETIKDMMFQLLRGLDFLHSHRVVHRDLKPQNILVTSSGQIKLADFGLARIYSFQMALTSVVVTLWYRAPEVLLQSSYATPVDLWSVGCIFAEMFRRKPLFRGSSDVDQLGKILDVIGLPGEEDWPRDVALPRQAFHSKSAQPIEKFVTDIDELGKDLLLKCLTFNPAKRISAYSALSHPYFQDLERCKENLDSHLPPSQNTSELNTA
# UniProt O14757: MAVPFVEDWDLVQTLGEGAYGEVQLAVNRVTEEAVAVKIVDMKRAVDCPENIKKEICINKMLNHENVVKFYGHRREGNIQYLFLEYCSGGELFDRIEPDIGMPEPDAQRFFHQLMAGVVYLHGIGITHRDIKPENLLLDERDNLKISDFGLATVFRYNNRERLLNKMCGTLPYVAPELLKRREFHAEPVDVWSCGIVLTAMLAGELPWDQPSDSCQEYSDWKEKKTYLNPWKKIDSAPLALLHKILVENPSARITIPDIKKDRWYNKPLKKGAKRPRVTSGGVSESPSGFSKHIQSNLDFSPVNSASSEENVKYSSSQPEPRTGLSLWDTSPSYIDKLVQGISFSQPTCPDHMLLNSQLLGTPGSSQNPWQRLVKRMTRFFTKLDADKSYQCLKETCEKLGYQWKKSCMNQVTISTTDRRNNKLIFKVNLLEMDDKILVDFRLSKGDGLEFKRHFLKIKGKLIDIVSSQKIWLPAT
# UniProt Q16566: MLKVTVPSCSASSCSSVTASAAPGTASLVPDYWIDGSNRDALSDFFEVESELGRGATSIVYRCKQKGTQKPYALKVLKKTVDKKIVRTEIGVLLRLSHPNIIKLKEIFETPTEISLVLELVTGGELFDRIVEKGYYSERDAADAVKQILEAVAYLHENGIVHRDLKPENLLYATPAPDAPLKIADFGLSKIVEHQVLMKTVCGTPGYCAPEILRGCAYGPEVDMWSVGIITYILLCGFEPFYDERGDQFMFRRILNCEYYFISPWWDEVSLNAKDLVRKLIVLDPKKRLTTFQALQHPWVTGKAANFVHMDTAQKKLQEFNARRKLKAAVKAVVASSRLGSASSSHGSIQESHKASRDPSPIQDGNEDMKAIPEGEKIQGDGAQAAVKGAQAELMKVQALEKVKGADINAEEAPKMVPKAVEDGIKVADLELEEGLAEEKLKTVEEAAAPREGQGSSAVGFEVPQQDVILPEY
# UniProt Q09013: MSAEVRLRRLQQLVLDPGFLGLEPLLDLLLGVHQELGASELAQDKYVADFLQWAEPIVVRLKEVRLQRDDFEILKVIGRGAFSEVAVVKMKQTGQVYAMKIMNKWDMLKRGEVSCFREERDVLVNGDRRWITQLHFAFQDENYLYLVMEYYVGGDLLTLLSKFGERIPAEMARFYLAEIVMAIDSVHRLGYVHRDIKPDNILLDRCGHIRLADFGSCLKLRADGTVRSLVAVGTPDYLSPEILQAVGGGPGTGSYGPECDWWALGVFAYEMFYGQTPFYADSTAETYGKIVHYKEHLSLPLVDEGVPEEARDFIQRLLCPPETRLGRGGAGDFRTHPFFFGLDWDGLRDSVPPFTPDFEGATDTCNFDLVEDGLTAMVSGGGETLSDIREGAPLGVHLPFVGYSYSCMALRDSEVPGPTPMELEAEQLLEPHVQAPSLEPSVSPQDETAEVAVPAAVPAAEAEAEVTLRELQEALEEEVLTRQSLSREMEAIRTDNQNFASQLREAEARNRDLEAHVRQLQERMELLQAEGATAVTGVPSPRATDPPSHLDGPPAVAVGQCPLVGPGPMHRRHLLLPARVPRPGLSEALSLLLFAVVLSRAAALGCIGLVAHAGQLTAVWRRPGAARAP
# UniProt P29317, whole entry: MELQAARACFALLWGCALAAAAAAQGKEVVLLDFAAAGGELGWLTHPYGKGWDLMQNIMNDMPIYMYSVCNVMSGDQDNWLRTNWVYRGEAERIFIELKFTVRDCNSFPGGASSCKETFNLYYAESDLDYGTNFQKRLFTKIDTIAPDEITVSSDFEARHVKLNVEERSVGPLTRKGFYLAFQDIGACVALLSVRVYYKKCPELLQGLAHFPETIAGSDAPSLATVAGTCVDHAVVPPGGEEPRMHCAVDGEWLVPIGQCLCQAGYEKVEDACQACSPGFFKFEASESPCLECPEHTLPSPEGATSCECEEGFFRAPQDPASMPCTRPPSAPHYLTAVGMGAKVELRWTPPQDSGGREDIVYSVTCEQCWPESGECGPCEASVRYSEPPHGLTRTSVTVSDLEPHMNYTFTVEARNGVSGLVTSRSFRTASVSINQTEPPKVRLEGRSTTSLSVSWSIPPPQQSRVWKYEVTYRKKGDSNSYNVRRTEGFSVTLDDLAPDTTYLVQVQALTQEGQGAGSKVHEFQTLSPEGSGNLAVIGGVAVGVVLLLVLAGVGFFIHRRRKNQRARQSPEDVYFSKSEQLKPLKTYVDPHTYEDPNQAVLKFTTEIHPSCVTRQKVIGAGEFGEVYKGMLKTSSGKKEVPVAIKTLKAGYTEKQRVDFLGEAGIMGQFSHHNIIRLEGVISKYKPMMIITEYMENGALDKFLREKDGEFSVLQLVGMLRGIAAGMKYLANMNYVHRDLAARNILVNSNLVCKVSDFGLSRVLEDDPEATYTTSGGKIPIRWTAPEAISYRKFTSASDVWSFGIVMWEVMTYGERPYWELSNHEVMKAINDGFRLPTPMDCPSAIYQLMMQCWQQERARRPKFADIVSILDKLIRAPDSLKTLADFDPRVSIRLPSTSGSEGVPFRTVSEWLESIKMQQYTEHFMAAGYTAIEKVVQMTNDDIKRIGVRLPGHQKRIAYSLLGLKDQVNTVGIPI
# UniProt Q15375: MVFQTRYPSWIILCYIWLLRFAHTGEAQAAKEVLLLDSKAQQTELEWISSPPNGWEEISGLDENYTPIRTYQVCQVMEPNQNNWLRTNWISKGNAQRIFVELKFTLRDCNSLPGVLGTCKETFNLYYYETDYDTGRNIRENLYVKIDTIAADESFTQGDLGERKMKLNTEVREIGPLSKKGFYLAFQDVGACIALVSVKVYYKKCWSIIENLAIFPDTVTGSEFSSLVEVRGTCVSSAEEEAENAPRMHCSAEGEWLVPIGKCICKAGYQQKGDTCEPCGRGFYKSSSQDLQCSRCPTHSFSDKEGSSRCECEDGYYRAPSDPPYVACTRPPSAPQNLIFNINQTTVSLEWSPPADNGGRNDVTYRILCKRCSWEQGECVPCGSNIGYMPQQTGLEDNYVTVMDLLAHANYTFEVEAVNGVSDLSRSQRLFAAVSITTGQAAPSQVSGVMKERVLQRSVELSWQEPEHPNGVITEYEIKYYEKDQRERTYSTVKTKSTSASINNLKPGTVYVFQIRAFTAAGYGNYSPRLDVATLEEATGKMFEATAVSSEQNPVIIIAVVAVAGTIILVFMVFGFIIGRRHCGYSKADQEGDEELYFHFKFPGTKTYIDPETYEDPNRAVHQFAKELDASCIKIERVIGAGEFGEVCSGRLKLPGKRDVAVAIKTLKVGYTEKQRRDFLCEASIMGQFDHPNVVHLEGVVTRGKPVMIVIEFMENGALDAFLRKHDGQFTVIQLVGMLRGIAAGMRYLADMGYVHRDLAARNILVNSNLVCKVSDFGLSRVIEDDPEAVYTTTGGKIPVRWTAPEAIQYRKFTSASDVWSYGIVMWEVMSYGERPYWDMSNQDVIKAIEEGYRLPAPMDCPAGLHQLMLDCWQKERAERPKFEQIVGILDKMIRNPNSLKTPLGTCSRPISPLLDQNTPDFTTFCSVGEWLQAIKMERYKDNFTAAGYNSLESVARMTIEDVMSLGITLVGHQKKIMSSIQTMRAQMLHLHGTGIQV
# UniProt P29323: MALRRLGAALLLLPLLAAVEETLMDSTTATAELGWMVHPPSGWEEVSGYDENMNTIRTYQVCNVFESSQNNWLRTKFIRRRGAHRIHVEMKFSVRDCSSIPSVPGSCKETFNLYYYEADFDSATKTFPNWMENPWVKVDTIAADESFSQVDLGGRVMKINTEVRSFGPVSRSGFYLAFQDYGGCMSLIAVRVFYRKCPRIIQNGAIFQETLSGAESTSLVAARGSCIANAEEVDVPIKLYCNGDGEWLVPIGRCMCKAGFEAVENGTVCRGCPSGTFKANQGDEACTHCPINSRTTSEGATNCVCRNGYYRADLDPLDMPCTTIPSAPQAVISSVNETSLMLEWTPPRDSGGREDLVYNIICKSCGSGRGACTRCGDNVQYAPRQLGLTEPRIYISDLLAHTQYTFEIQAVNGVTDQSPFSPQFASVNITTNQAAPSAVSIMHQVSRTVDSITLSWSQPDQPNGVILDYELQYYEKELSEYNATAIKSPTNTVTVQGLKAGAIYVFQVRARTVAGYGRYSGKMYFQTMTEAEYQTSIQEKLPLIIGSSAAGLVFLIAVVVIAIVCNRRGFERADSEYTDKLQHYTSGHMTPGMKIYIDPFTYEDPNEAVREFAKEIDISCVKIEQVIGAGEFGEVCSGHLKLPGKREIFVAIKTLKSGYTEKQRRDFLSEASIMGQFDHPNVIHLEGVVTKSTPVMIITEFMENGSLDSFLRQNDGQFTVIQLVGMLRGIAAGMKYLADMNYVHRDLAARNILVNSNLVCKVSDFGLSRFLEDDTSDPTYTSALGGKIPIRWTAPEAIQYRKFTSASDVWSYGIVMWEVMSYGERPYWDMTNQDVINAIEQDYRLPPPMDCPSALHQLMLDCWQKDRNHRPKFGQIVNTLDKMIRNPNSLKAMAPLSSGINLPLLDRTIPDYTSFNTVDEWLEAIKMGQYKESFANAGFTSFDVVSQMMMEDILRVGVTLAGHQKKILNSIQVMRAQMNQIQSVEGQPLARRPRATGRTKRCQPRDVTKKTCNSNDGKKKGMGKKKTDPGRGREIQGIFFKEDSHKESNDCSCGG
# UniProt Q15303, whole entry: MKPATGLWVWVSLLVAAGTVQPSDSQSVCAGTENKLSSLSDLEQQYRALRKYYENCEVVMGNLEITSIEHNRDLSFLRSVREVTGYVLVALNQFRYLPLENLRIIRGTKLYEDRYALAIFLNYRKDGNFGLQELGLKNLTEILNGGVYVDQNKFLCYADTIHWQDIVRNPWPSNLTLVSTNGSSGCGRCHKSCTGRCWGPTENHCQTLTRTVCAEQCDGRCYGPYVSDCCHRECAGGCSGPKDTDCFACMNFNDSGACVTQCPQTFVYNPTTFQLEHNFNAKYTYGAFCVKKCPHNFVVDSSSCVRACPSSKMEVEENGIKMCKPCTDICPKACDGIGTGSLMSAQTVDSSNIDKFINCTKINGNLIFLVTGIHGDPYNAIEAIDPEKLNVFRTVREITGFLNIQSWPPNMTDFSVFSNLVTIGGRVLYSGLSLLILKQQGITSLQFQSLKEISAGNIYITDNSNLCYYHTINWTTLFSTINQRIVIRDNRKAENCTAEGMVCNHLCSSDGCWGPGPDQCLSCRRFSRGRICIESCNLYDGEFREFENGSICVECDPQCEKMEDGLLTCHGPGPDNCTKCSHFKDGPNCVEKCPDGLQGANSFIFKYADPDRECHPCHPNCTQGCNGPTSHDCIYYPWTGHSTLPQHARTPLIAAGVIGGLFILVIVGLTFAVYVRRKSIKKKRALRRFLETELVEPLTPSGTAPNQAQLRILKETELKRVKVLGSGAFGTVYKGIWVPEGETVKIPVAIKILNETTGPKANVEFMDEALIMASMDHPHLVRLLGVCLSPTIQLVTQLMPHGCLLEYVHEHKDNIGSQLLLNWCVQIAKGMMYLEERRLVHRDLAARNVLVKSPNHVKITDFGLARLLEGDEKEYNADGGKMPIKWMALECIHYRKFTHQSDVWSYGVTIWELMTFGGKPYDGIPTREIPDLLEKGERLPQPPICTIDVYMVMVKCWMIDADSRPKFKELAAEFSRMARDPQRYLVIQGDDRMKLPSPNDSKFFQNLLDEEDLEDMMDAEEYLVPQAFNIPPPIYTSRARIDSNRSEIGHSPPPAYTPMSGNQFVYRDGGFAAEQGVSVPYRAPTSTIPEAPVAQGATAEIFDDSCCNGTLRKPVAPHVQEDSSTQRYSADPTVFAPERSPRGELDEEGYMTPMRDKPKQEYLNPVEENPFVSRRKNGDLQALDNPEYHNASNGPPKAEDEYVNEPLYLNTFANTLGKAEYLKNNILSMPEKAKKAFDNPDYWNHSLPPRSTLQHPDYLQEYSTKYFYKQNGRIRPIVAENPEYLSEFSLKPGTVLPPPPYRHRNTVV
# For some assays here: This list holds what a sample rich in strong results left over. How the calls were made is not given here. This is a selection; strong and weak results do not stand in their true shares.
# Key:
# [1] = biological target: Protein kinase C zeta type (Homo sapiens) (UniProt Q05513); details: at 1 µM
# [2] = biological target: Tyrosine-protein kinase ABL1 (Homo sapiens) (UniProt P00519); details: at 1 µM
# [3] = biological target: Tyrosine-protein kinase ABL1 (Homo sapiens) (UniProt P00519); details: at 10 µM
# [4] = biological target: Tyrosine-protein kinase ABL2 (Homo sapiens) (UniProt P42684); details: at 1 µM
# [5] = biological target: Protein-tyrosine kinase 6 (Homo sapiens) (UniProt Q13882); details: at 1 µM
# [6] = biological target: Protein-tyrosine kinase 6 (Homo sapiens) (UniProt Q13882); details: at 10 µM
# [7] = biological target: Tyrosine-protein kinase BTK (Homo sapiens) (UniProt Q06187); details: at 10 µM
# [8] = biological target: T1, Serine/threonine-protein kinase BRSK2 (Homo sapiens) (UniProt Q8IWQ3); details: at 1 µM
# T1 sequence (whole entry): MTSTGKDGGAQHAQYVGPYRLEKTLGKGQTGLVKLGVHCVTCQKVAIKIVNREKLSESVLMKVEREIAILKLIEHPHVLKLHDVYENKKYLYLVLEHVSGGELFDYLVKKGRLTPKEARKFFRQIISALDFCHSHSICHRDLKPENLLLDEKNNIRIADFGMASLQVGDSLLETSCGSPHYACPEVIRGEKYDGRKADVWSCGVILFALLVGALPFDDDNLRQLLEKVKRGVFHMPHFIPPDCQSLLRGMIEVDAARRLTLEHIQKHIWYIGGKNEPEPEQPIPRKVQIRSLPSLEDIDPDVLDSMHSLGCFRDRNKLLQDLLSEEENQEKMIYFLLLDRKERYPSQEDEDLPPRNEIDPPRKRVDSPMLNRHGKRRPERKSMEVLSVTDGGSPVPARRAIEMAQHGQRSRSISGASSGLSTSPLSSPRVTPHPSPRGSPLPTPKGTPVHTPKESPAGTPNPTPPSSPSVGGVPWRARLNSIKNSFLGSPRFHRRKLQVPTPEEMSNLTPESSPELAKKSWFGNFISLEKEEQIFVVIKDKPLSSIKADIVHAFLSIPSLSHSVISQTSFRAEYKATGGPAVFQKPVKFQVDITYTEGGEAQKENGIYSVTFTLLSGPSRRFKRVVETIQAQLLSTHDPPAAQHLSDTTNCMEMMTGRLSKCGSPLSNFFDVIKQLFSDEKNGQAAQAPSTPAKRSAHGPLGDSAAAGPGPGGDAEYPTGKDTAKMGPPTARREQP
# [9] = biological target: CDK6/cyclin D3 (Homo sapiens) (UniProt P30281+Q00534); details: at 1 µM
# [10] = biological target: Serine/threonine-protein kinase Chk1 (Homo sapiens) (UniProt O14757); details: at 1 µM
# [11] = biological target: Serine/threonine-protein kinase Chk1 (Homo sapiens) (UniProt O14757); details: at 10 µM
# [12] = biological target: Tyrosine-protein kinase CSK (Homo sapiens) (UniProt P41240); details: at 1 µM
# [13] = biological target: Calcium/calmodulin-dependent protein kinase type IV (Homo sapiens) (UniProt Q16566); details: at 1 µM
# [14] = biological target: Myotonin-protein kinase (Homo sapiens) (UniProt Q09013); details: at 1 µM
# [15] = biological target: Dual specificity tyrosine-phosphorylation-regulated kinase 2 (Homo sapiens) (UniProt Q92630); details: at 1 µM
# [16] = biological target: T2, Ephrin type-A receptor 1 (Homo sapiens) (UniProt P21709); details: at 1 µM
# T2 sequence (whole entry): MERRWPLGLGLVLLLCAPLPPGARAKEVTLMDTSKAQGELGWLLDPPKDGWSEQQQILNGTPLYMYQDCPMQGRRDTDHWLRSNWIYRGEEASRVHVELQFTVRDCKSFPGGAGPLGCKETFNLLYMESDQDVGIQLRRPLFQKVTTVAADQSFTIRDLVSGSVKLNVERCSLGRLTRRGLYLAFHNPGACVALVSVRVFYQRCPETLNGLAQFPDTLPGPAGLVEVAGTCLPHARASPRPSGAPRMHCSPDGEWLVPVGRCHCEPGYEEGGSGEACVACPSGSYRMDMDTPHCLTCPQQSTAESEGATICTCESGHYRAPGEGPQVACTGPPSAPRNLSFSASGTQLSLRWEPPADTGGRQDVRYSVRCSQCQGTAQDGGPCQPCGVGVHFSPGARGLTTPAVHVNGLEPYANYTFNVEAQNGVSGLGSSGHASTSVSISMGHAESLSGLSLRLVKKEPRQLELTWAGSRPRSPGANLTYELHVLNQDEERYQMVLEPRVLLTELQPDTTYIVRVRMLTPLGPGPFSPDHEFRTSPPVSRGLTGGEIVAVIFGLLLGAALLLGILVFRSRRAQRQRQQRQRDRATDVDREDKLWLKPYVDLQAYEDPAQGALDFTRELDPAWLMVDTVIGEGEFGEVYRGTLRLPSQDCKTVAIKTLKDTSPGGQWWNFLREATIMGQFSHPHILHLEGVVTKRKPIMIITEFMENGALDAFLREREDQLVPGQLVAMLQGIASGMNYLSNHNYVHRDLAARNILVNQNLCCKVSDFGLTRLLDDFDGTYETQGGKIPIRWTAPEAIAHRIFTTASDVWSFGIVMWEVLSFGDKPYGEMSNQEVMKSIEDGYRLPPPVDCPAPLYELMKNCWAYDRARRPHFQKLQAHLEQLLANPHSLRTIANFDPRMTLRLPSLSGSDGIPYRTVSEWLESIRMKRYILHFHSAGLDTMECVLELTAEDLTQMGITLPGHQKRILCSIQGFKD
# [17] = biological target: T2, Ephrin type-A receptor 1 (Homo sapiens); details: at 10 µM
# [18] = biological target: Ephrin type-A receptor 2 (Homo sapiens) (UniProt P29317); details: at 10 µM
# [19] = biological target: Ephrin type-A receptor 4 (Homo sapiens) (UniProt P54764); details: at 10 µM
# [20] = biological target: Ephrin type-A receptor 5 (Homo sapiens) (UniProt P54756); details: at 1 µM
# [21] = biological target: Ephrin type-A receptor 5 (Homo sapiens) (UniProt P54756); details: at 10 µM
# [22] = biological target: Ephrin type-A receptor 7 (Homo sapiens) (UniProt Q15375); details: at 1 µM
# [23] = biological target: T3, Ephrin type-B receptor 1 (Homo sapiens) (UniProt P54762); details: at 1 µM
# T3 sequence (whole entry): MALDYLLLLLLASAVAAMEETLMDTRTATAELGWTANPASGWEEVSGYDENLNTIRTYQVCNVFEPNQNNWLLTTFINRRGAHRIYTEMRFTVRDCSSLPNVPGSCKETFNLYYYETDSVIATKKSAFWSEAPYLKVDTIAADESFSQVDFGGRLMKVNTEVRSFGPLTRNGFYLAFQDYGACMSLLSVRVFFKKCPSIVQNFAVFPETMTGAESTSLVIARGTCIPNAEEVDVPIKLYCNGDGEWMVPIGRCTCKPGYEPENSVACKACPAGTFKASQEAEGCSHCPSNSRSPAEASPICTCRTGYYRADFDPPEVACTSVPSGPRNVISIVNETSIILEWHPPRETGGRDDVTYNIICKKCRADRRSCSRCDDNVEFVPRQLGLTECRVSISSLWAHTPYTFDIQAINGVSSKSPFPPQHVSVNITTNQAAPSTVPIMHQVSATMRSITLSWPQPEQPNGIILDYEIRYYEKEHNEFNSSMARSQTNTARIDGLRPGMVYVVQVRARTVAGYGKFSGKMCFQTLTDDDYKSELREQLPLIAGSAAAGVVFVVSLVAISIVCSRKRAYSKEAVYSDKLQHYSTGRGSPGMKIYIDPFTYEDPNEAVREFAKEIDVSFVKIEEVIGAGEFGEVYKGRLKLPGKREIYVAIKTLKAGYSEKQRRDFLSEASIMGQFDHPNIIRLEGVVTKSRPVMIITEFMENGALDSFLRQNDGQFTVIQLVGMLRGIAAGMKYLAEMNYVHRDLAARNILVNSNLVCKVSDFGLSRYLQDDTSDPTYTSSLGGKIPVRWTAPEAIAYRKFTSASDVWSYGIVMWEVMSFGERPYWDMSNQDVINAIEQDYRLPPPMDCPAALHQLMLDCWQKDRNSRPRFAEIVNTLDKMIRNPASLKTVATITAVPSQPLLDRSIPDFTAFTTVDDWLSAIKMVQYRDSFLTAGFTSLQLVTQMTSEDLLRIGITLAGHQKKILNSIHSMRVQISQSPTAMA
# [24] = biological target: Ephrin type-B receptor 2 (Homo sapiens) (UniProt P29323); details: at 10 µM
# [25] = biological target: Receptor tyrosine-protein kinase erbB-4 (Homo sapiens) (UniProt Q15303); details: at 1 µM
# [26] = biological target: Receptor tyrosine-protein kinase erbB-4 (Homo sapiens) (UniProt Q15303); details: at 10 µM
# [27] = biological target: Focal adhesion kinase 1 (Homo sapiens) (UniProt Q05397); details: at 1 µM
# [28] = biological target: Fibroblast growth factor receptor 3 (Homo sapiens) (UniProt P22607); details: at 1 µM
# [29] = biological target: Fibroblast growth factor receptor 4 (Homo sapiens) (UniProt P22455); details: at 1 µM
structure (smiles),measurement,setting,value
O=C1NC(=O)C(c2cn(CCCO)c3ncccc23)=C1c1cnccn1,residual activity,[1],inactive: 100%
same,residual activity,[2],101%
same,residual activity,[3],105%
same,residual activity,[4],101%
same,residual activity,[5],112%
same,residual activity,[6],110%
same,residual activity,[7],102%
same,residual activity,[8],113%
same,residual activity,[9],110%
same,residual activity,[10],102%
same,residual activity,[11],94%
same,residual activity,[12],118%
same,residual activity,[13],105%
same,residual activity,[14],111%
same,residual activity,[15],103%
same,residual activity,[16],103%
same,residual activity,[17],101%
same,residual activity,[18],100%
same,residual activity,[19],109%
same,residual activity,[20],106%
same,residual activity,[21],101%
same,residual activity,[22],109%
same,residual activity,[23],109%
same,residual activity,[24],104%
same,residual activity,[25],101%
same,residual activity,[26],95%
same,residual activity,[27],102%
same,residual activity,[28],104%
same,residual activity,[29],107%
